Experimental data: US8524917B2, “6-substituted indole-3-carboxylic acid amide compounds having sphingosine-1-phosphate (S1P) receptor antagonist biological activity” (Allergan, Inc., priority 2007, dated 2013)

Chains of the proteins cited; added tags and fusions are not shown. Lines headed by an entry give the natural chain unless they say otherwise; changes in a name come on top.
UniProt Q99500: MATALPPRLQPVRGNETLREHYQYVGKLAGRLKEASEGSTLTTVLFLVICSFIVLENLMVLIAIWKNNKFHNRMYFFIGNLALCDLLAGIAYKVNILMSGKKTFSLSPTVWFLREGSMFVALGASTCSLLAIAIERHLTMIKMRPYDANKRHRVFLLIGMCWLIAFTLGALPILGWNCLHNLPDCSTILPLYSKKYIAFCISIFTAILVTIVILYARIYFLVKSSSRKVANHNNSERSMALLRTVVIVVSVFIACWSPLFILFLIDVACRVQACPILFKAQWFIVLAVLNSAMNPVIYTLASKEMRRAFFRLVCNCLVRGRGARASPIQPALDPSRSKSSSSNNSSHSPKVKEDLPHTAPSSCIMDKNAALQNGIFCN

Molecular target: human S1P3 receptor (Homo sapiens (Human), UniProt Q99500)
Assay: Activation or block of activation of human S1P3 receptor, Ca+2 FLIPR assay
Format: cell-based
Procedure: Compounds were assessed for their ability to activate or block activation of the human S1P3 receptor in T24 cells stably expressing the human S1P3 receptor. Ten thousand cells/well were plated into 384-well poly-D-lysine coated plates one day prior to use. The growth media for the S1P3 receptor expressing cell line was McCoy's 5A medium supplemented with 10% charcoal-treated fetal bovine serum (FBS), 1% antibiotic-antimycotic and 400 μg/ml geneticin. On the day of the experiment, the cells were washed twice with Hank's Balanced Salt Solution supplemented with 20 mM HEPES (HBSS/Hepes buffer). […] Extracellular dye was removed by washing the cell plates four times prior to placing the plates in the FLIPR (Fluorometric Imaging Plate Reader, Molecular Devices). Ligands were diluted in HBSS/Hepes buffer and prepared in 384-well microplates. The positive control, Sphingosine-1-Phosphate (S1P), was diluted in HBSS/Hepes buffer with 4 mg/ml fatty acid free bovine serum albumin. The FLIPR transferred 12.5 μl from the ligand microplate to the cell plate and took fluorescent measurements for 75 seconds, taking readings every second, and then for 2.5 minutes, taking readings every 10 seconds. […] IC50 values were determined through a […] analysis using the Levenburg Marquardt algorithm.

In the case of `CC(C)c1c(C(=O)NCc2ccc(F)c(F)c2)c2ccc(Oc3nccs3)cc2n1Cc1ccccc1` [Compound 132, 1-Benzyl-N-(3,4-difluorobenzyl)-2-isopropyl-6-(1,3-thiazol-2-yloxy)-1H-indole-3-carboxamide], the “S1P3 (% inh)” value was 99% and the pIC50 (T24 cells stably expressing the human S1P3 receptor, FLIPR Ca+2 response, 0.61 nM to 10,000 nM) was 7.80.

pIC50: −log10 of the molar value.
